Results from patent US20220204560A1, “NOVEL OLIGOPEPTIDE, AND PHARMACEUTICAL COMPOSITION FOR PREVENTING OR TREATING CANCER, COMPRISING THE SAME AS AN ACTIVE INGREDIENT” (L-BASE CO., LTD., priority 2019, published 2022).

Tests used:
[1] = test system: lung cancer cell line A549; settings: A549, 100 μM or 500 μM, 72 hours, compared to control group (FIG. 1)
[2] = test system: lung cancer cell line H1650; settings: H1650, 100 μM or 500 μM, 72 hours, compared to control group (FIG. 2)

CSCC[C@H](NC(=O)[C@@H](NC(=O)[C@H](CCC(N)=O)NC(=O)[C@H](C)N)[C@@H](C)O)C(=O)N[C@H](C(=O)NCC(=O)N[C@@H](CCCCN)C(=O)N[C@H](C(=O)O)[C@@H](C)O)[C@@H](C)O [AQTMTGKT]
cytotoxicity (proliferation suppressive effect, MTT assay) [1]: significant cytotoxicity
cytotoxicity (proliferation suppressive effect, MTT assay) [2]: significant cytotoxicity

CC(C)[C@H](NC(=O)[C@@H](NC(=O)[C@H](CCC(N)=O)NC(=O)[C@H](C)N)[C@@H](C)O)C(=O)N[C@H](C(=O)NCC(=O)N[C@@H](CCCCN)C(=O)N[C@H](C(=O)O)[C@@H](C)O)[C@@H](C)O [AQTVTGKT]
cytotoxicity (proliferation suppressive effect, MTT assay) [1]: significant cytotoxicity
cytotoxicity (proliferation suppressive effect, MTT assay) [2]: significant cytotoxicity

C[C@H](N)C(=O)N[C@@H](CCC(N)=O)C(=O)N[C@H](C(=O)N[C@@H](C)C(=O)N[C@H](C(=O)NCC(=O)N[C@@H](CCCCN)C(=O)N[C@H](C(=O)O)[C@@H](C)O)[C@@H](C)O)[C@@H](C)O [AQTATGKT]
cytotoxicity (proliferation suppressive effect, MTT assay) [1]: significant cytotoxicity
cytotoxicity (proliferation suppressive effect, MTT assay) [2]: significant cytotoxicity

C[C@H](N)C(=O)N[C@@H](CCC(N)=O)C(=O)N[C@H](C(=O)N1CCC[C@H]1C(=O)N[C@H](C(=O)NCC(=O)N[C@@H](CCCCN)C(=O)N[C@H](C(=O)O)[C@@H](C)O)[C@@H](C)O)[C@@H](C)O [AQTPTGKT]
cytotoxicity (proliferation suppressive effect, MTT assay) [1]: significant cytotoxicity
cytotoxicity (proliferation suppressive effect, MTT assay) [2]: significant cytotoxicity
